# Test results taken from US10829473B2, “Modulators of the cystic fibrosis transmembrane conductance regulator protein and methods of use” (AbbVie Overseas S.Á.R.L., priority 2017, dated 2020).
# Chains of the proteins cited; added tags and fusions are not shown. A line that says so, or that is headed by a name, gives the form on record, which may keep a tag or linker.
# UniProt P13569, with tags, fused parts or gaps DEL508-508: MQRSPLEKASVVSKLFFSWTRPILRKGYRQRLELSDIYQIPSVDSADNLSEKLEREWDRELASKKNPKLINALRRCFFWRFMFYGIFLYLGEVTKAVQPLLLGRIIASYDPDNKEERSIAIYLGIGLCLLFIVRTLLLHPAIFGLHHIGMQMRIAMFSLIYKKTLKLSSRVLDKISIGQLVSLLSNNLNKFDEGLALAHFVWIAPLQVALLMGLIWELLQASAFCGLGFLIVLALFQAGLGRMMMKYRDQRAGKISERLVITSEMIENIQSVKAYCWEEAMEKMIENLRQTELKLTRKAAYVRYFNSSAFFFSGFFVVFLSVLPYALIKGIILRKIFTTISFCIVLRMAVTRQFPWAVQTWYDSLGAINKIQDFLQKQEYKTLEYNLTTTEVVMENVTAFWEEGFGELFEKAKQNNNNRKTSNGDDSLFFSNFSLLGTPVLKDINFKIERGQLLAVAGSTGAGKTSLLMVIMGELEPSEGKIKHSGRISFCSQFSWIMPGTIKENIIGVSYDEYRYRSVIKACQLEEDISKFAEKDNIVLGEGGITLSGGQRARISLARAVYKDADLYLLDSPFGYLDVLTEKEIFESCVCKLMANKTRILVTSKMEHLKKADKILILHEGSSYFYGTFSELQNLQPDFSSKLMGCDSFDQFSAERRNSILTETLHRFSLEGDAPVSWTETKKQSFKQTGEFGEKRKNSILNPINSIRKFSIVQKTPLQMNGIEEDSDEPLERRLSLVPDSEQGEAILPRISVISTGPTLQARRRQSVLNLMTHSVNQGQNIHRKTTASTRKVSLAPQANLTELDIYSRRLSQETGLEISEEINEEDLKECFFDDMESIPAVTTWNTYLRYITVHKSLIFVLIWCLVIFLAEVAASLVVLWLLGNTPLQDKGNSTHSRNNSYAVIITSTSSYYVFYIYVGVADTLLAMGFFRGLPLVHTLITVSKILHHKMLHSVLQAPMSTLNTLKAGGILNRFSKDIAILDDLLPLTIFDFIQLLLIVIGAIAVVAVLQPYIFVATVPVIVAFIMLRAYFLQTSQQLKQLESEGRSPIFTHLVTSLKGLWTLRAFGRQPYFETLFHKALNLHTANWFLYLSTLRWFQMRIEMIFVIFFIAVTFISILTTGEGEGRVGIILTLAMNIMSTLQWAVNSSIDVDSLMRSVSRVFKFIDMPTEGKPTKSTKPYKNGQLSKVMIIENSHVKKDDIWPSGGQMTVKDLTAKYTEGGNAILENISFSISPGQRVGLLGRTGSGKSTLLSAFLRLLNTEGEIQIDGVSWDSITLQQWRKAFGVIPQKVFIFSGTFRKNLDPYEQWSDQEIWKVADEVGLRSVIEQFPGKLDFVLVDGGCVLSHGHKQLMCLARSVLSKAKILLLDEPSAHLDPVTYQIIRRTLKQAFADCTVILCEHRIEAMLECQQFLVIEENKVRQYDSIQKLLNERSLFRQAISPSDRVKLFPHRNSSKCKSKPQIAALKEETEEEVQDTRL
# Where two headings read alike, the source gives them in different places.
# Biological target: F508delCFTR (Homo sapiens, UniProt P13569, DEL508-508)
# Test: Cell Surface Expression-Horse Radish Peroxidase (CSE-HRP) Assay
# Format: cell-based
# Experimental: A cellular assay for measuring the F508delCFTR cell surface expression after correction with test compounds either without or with a co-corrector (2 μM of 3-[(2R,4R)-4-({[1-(2,2-difluoro-1,3-benzodioxol-5-yl)cyclopropyl]carbonyl}amino)-7-methoxy-3,4-dihydro-2H-chromen-2-yl]benzoic acid), was developed in human lung derived epithelial cell line (CFBE4lo−) (Veit G et al, (2012) Mol Biol Cell. 23(21): 4188-4202). The development was achieved by expressing the F508delCFTR mutation along with a horseradish peroxidase (HRP) in the fourth exofacial loop, and then measuring the HRP activity using luminescence readout from these cells, CFBE410-F508delCFTR-HRP, that were incubated overnight with the test corrector compounds, either without or with the co-corrector. […] Post incubation, the plates were washed 5× times with Dulbecco's phosphate buffered saline (DPBS), followed by the addition of the HRP substrate, luminol (50 4), and measuring the HRP activity using luminescence readout on EnVision® Multilabel Plate Reader (Perkin Elmer; product number 2104-0010). The raw counts from the experiment were analyzed using Accelrys® Assay Explorer v3.3. […]
smiles,measurement,setting,value
"COc1ccc(C2CCC2)cc1C1(C(=O)NS(=O)(=O)c2cccc3nc(C)ccc23)CCC1 [Example I-33, 1-(5-cyclobutyl-2-methoxyphenyl)-N-(2-methylquinoline-5-sulfonyl)cyclobutane-1-carboxamide]",EC50,"read-out: EC50 (with co-corrector), with co-corrector",< 3000 nM
same,EC50,"read-out: EC50 (without co-corrector), test compound alone, without co-corrector",< 3000 nM
